Assay results as given in PubChem BioAssay AID847 (SRMLSC, 2007).
Only a part is listed here, and it is no random draw. Activity calls are given as the source filed them.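 The calls were made as follows: active = viability at or below the median of all test compounds minus 3 SD, in both replicates if run twice (cut at about 45% in these data); inconclusive = duplicate replicates that disagree with each other; inactive = viability above that cutoff in every replicate.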

Assay: SK-BR-3 proliferation inhibitors, primary screen, cell-based, human, 24 h (AID 847);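 also: 100% = median untreated cell wells and 0% = median positive control drug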
Settings: SK-BR-3 viability, CellTiter-Glo ATP luminescence, at 10 µM, hits give low values

Row | SMILES | viability
1 | O=C(OC1CN2CCC1CC2)C1c2ccccc2Oc2ccccc21 (stereo not given) | inactive: 88.5%
2 | N#CC1(Nc2ccccc2)CCN(CCc2ccccc2)CC1 | inactive: 86.3%
3 | N/C(=N\O)c1c(N)no[n+]1[O-] | inactive: 87.7%
4 | CCC(CO)(C(=O)OC1CN2CCC1CC2)c1ccccc1 (stereo not given) | inactive: 85.7%
5 | Fc1ccccc1NC1CCN(Cc2ccccc2)CC1 | inactive: 76.6%
